Key:
[1] = target: T1, human erythrocyte AChE (hAChE) (Homo sapiens, UniProt P22303); assay type: biochemical
T1 construct: The human erythrocyte AChE (hAChE, aqueous buffer solution); purchased Sigma Aldrich; host or cells: human erythrocytes

Protein sequences, listed by entry. Tags and fused reporters are not part of them. Residues count along the entry.
UniProt P22303, 32-617 isoform P22303-2 limits assumed: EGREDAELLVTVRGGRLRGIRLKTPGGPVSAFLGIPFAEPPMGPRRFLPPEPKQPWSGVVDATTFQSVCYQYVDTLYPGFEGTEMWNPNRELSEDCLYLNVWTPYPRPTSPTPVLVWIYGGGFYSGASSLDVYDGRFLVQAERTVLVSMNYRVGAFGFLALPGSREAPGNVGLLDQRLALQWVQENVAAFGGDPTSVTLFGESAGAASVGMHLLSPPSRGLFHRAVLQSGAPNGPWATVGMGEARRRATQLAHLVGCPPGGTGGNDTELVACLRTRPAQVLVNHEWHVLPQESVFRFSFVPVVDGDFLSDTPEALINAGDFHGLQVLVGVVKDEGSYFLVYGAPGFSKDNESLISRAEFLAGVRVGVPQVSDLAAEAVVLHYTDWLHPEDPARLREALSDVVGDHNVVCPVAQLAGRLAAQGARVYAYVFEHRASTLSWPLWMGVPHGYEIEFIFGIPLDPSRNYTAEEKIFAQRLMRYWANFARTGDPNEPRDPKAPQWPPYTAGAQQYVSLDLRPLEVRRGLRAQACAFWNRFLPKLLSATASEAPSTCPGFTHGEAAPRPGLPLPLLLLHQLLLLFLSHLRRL
UniProt P81908, whole entry: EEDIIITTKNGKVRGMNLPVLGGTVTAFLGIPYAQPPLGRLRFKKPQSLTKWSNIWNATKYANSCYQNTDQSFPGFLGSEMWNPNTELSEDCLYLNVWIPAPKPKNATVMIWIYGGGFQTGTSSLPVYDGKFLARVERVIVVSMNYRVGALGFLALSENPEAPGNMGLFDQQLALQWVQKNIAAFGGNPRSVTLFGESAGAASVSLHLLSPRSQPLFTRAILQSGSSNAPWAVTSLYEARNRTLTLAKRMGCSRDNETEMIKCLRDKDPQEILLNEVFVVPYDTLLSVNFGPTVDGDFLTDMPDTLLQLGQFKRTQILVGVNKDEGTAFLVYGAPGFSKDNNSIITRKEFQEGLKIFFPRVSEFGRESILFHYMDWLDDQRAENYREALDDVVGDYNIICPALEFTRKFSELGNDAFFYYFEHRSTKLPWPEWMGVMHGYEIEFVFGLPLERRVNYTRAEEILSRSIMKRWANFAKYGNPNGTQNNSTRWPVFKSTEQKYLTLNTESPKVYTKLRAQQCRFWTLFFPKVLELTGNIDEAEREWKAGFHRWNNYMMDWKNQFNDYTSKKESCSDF

[2] = target: T2, BuChE from equine serum (eqBuChE) (Equus caballus, UniProt P81908); assay type: biochemical
T2 construct: The BuChE freeze-dried from equine serum (eqBuChE, Sigma Aldrich); purchased Sigma Aldrich; host or cells: equine serum

Tri(4-isopropylbenzoate)phosphate [Compound G]
IC50 hAChE [1]: 15.8 µg/mL | IC50 eqBuChE [2]: 145.5 µg/mL

From patent US11230683B2 (priority 2020, dated 2022)
